Test [1] has as its target PDE4 (Homo sapiens, UniProt Q08499). The experiment in a line: In-vitro assay for PDE4 enzymes, real-time enzyme-coupled spectrophotometric assay (Table 9). Type of test: biochemical. Particulars: read-out: hPDE4D, human PDE4D, activity class.
Test [2] has as its target PDE4B (Homo sapiens, UniProt Q07343). The experiment in a line: In-vitro assay for PDE4 enzymes, real-time enzyme-coupled spectrophotometric assay, PDE4B Activity (Table 10). Particulars: read-out: PDE4B Activity, hPDE4B. In kind it is biochemical.

Amino acid sequences for entries named in this document (tags omitted).
UniProt Q08499, whole entry: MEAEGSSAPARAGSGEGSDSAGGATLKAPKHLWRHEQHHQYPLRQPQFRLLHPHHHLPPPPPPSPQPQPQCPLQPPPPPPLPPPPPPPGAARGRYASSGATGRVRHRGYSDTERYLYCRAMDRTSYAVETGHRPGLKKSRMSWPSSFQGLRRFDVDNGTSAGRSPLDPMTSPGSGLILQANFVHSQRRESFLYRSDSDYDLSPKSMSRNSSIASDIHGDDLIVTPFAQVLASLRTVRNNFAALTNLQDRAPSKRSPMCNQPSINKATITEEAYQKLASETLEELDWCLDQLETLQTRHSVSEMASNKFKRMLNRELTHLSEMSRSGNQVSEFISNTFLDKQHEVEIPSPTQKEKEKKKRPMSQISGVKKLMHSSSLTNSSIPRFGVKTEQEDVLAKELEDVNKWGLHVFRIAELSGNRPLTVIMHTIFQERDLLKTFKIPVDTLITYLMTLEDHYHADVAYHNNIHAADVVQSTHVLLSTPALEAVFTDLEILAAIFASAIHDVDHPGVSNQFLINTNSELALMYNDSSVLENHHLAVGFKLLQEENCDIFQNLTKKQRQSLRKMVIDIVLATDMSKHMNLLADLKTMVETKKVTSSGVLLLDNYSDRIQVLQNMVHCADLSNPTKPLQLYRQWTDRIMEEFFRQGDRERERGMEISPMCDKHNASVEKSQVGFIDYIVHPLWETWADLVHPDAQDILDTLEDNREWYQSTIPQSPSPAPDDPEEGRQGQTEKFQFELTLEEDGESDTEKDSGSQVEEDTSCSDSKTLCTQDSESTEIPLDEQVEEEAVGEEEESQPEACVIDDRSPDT
UniProt Q07343, whole entry: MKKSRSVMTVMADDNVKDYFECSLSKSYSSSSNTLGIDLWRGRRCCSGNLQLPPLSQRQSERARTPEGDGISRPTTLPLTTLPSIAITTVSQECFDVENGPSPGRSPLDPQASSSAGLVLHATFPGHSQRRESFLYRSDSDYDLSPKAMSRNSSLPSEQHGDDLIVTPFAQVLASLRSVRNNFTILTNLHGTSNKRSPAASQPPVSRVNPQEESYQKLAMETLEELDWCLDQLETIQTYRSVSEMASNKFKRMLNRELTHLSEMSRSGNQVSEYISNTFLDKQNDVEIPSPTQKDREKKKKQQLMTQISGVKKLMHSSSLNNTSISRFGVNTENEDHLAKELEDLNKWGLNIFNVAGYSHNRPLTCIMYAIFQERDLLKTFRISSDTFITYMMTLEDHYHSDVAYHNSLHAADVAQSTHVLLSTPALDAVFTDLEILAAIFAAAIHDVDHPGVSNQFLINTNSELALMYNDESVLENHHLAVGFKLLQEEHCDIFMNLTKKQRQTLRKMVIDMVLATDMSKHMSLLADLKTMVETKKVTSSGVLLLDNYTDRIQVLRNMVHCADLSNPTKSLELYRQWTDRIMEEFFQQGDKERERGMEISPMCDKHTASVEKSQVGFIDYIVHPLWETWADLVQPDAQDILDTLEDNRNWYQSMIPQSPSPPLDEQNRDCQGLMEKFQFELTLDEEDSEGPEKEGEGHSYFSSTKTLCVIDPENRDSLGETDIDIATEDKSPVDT

The structures appear in SMILES notation.

`COc1ccc(Cc2ccc(NC(N)=O)nc2)c(F)c1-c1cccc(C(C)=O)c1`: the IC50 in test [1] and in test [2] was less than 5 µM each time.
Take `COc1ccc(Cn2cncn2)cc1-c1cc(F)c(F)c(F)c1`: the IC50 in test [1] was less than 5 µM; in test [2], 5 to 20 µM.
On the same counts, the results for `COc1ccc(Cn2cncn2)cc1-c1cccc(C(F)(F)F)c1` are less than 5 µM and 5 to 20 µM.
On to `COC(=O)c1cccc(-c2cc(Cn3cncn3)ccc2OC)c1F`, for which the IC50 in test [1] was less than 5 µM.
Same read-out and setting: as for `COc1ccc(CSc2ccc(F)cc2)cc1-c1cccc([N+](=O)[O-])c1`, the figure is 5 to 20 µM.
For the compound `COc1ccc(Cn2cccc(OC)c2=O)cc1-c1cccc([N+](=O)[O-])c1`, the IC50 in test [1] and in test [2] was less than 5 µM each time.
As for `COc1ccc(Cn2cc(Br)cnc2=O)cc1-c1cccc(Cl)c1`, the IC50 in test [1] and in test [2] was 5 to 20 µM in each case.
With `COc1ccc(Cn2ncccc2=O)cc1-c1cccc([N+](=O)[O-])c1`, the IC50 in test [1] and in test [2] was less than 5 µM in each case.
Regarding `COc1ccc(CNc2ccc(NC(C)=O)cc2)c(F)c1-c1cccc(Cl)c1`, the IC50 in test [1] is 5 to 20 µM.
On to `COC(=O)c1cc(-c2cc(Cn3cncn3)ccc2OC)ccc1F`, for which the IC50 is less than 5 µM in test [1] and 5 to 20 µM in test [2].
As for `COc1ccc(Cc2ccc(NCC(=O)O)nc2)c(O)c1-c1cccc([N+](=O)[O-])c1`, the IC50 in test [1] and in test [2] was less than 5 µM each time.
As to `COc1ccc(Cn2cc(-c3ccc(N)cc3)cn2)c(F)c1-c1cccc(Cl)c1`, the IC50 in test [1] is less than 5 µM.
On the same count and under the same terms, the result for `COc1ccc(C(=O)c2ccc(F)cc2)c(OC)c1-c1cccc([N+](=O)[O-])c1` reads 20 to 40 µM.
With `COc1ccc(Cn2nc(C)ccc2=O)cc1-c1cccc([N+](=O)[O-])c1`, the IC50 in test [1] and in test [2] was 5 to 20 µM in each case.
As to `COc1ccc(C(O)c2ccc(F)cc2)c(F)c1-c1cccc([N+](=O)[O-])c1` (stereo not shown), the IC50 is less than 5 µM in test [1] and 5 to 20 µM in test [2].
As for `COc1ccc(Cc2ccc[nH]c2=O)c(O)c1-c1cccc([N+](=O)[O-])c1`, the IC50 in test [1] and in test [2] was less than 5 µM throughout.
Regarding `COc1ccc(Cn2c(=O)oc3ccccc32)cc1-c1cccc([N+](=O)[O-])c1`, the IC50 in test [1] and in test [2] was less than 5 µM in each case.
Take `COc1ccc(Cc2ccc(-c3ccc(O)nc3)nc2)c(F)c1-c1cccc(Cl)c1`: the IC50 in test [1] was less than 5 µM.
Regarding `COc1ccc(Cn2cncn2)cc1-c1ccc(F)c(F)c1`, the IC50 in test [1] was less than 5 µM; in test [2], 5 to 20 µM.
As for `COc1ccc(=O)n(Cc2ccc(OC)c(-c3cccc([N+](=O)[O-])c3)c2)n1`, the IC50 in test [1] fell in the range of 5 to 20 µM; in test [2], 21 to 40 µM.

Source of the values: patent publication US8791267B2, “Biaryl PDE4 inhibitors for treating inflammatory, cardiovascular and CNS disorders” (Decode Genetics EHF, priority 2007, dated 2014).
